Laboratory results from patent US12319684B2 (Sanford Burnham Prebys Medical Discovery Institute, priority 2014, dated 2025).

Biological target: T1, human apelin receptor (APJ, AGTRL-1, APLNR) (Homo sapiens, UniProt P35414)
T1 construct: host or cells: Chinese hamster ovary cells
T1 sequence (P35414 1-380): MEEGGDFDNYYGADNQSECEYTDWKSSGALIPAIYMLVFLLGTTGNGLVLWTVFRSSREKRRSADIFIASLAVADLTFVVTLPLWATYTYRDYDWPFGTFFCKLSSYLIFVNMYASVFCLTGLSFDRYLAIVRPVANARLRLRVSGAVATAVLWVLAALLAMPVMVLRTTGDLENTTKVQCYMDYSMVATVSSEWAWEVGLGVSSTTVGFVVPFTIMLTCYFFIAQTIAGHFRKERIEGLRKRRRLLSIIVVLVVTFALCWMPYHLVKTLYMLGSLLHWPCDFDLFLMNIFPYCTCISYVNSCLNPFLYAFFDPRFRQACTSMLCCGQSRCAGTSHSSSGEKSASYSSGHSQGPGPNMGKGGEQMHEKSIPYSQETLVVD
Experiment: APJ cAMP cell-based assay (forskolin-stimulated CHO cells, enzyme fragment complementation)
Method: The assays disclosed herein were performed using cell lines from DiscoveRx, Inc.
Biological activity was determined in a cell-based assay. This assay detects activation of the receptor by reporting on intracellular cyclic adenosine monophosphate (cAMP) level. Chinese hamster ovary cells engineered to express a stably integrated human apelin receptor (APJ, AGTRL-1, APLNR), were plated into the wells of a microtiter plate. Cells were stimulated with forskolin to increase intracellular cAMP. Immediately following, compounds were added at a range of final concentrations 0.0-100 μM, in DMSO (not to exceed a final DMSO concentration of >1% v/v), and allowed to incubate with the cells for 0.5 h. At the end of the incubation, cells were lysed to stop APJ signaling, and cAMP was quantified using a commercially available assay kit that applies enzyme fragment complementation technology and bioluminescence, in a competitive ELISA format.
Compound efficacy (% resp) is reported as a percentage of the maximal apelin-13 response at 1 nM (control).

COc1ccccc1-n1c(NCc2cc(=O)n3cc(C)ccc3n2)nnc1-c1cccs1 [Example 85, 4-(2-Methoxy-phenyl)-3-(2-phenyl-oxazol-4-ylmethoxy)-5-thiophen-2-yl-4H-[1,2,4]triazole]
EC50: > 10 µM
